# Test results: patent publication EP0528486A2, “Non-substrate inhibitors of farnesyl protein transferase” (MERCK & CO. INC., priority 1991, dated 1993)
# Molecular target: T1, farnesyl-protein transferase (Bos taurus, UniProt P29702+P49355)
# T1 construct: partially pure bovine brain farnesyl-protein transferase; from tissue; host or cells: bovine brain (cerebral lobes)
# Assay: Inhibition of Ras farnesylation in vitro
# Assay type: biochemical, bovine
# Conditions: Ras-CVLS at 3.5 µM, 0.25 µM [³H]FPP, partially purified enzyme; average of 2-5 determinations; read-out: IC₅₀
# Experimental: Polyisoprenylation of Ras- [³H]Farnesyl diphosphate (FPP) (20 Ci/mmol) was purchased from New England Nuclear. Farnesyl-protein transferase activity assays were carried out at 30°C unless noted otherwise. A typical reaction contained (in a final volume of 50 µl):[³H]farnesyl diphosphate, Ras protein (3.5µM), 50 mM HEPES, pH 7.5, 5 mM MgCl₂ 5 mM dithiothreitol and farnesyl-protein transferase. After thermally pre-equilibrating the assay mixture in the absence of enzyme, reactions were initiated by the addition of farnesyl-protein transferase and stopped at timed intervals by the addition of 1M HCl in ethanol (1 mL). The quenched reactions were allowed to stand for 15 minutes (to complete the precipitation process). After adding 2 mL of 100% ethanol, the reactions were vacuum-filtered through Whatmann GF/C filters. Filters were washed four time with 2 mL aliquots of 100% ethanol, mixed with scintillation fluid (10 mL) and then counted in a Beckmann LS3801 scintillation couter.
# For inhibition studies, assays were run as described above, except putative inhibitors were added at the concentration indicated, IC₅₀ values were determined with both farnesyl-protein transferase substrates at their KM concentrations. The KM for Ras protein substrate having the CAAX sequence, CVLS, is 3.5 µM and the KM for FPP is 0.25µM.
# Ras proteins used as substrates were expressed in E. coli and purified. […]
structure (smiles),measurement,value
"CC(C)C[C@H](NC(=O)[C@@H](NC(=O)[C@@H](N)CS)C(C)C)C(=O)N[C@@H](CO)C(=O)O [CVLS, Cys-Val-Leu-Ser, reference compound]",IC50,2 µM
